According to PubChem BioAssay AID2810 (NMMLSC, 2010):
The entries are a selection whose mix differs from that of the whole data set. The source made the active and inactive calls.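 Rule for the calls: active = at either tested dose, response and 90th-percentile vesicle-stain brightness of CD8 cells under set limits and under 9% cells vesicle-bound; inactive = the rest.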

Assay: modulators of CD8 T cell-vesicle binding, confirmation, cherry-picked primary hits, two concentrations (AID 2810);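 note: ratio of mean FL2 vesicle stain of CD8+ cells to that row's control; lower values mean blocking of vesicle binding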
Settings: 2C CD8+ T cell-vesicle binding, flow cytometry; at 15.4 µM; stronger effect = lower value

| Structure (SMILES) | percent response (vesicle binding) |
| --- | --- |
| CCOC(=O)c1ccc(NP(C)(=O)Oc2ccccc2)cc1 (configuration not stated) | inactive: 220% |
| COc1ccccc1OP(C)(=O)Nc1c(C)cccc1C (configuration not stated) | inactive: 160% |
